Experiments:
[1] = Measurement of Rb (blood-to-plasma concentration ratio) in spiked human blood, LC-MS/MS; format: in vitro ADME; conditions: heparinized human whole blood, footnote a: Rb is our experimental data, read-out: Rb_Human (blood-to-plasma concentration ratio)
[2] = human; median if multiple values were reported; ref numbers in Table S1; cited from earlier work

| SMILES | blood plasma ratio at 30 min, 5 µM [1] | Rb_Human (blood-to-plasma concentration ratio) [2] |
| --- | --- | --- |
| CC#CCC(C)[C@H](O)/C=C/[C@@H]1[C@H]2C/C(=C/CCCC(=O)O)C[C@H]2C[C@H]1O (stereo partly drawn) [Iloprost] | 0.69 |  |
| CCC1=C(C)CN(C(=O)NCCc2ccc(S(=O)(=O)NC(=O)N[C@H]3CC[C@H](C)CC3)cc2)C1=O [Glimepiride] |  | 0.56 |
| CC(C)NCC(O)COc1ccc(COCCOC(C)C)cc1 (stereo not drawn) [Bisoprolol] | 0.95 |  |

Reference: paper PMC8342319, “Predicting blood-to-plasma concentration ratios of drugs from chemical structures and volumes of distribution in humans” (Molecular Diversity, 2021)
